The values that follow come from ChEMBL document CHEMBL2417384 (J Med Chem, 2013).

Common to all, as to settings: in vivo
The test system of series [1] is Mus musculus. Kind of series: Dose normalized AUC in mouse at 1 mg/kg, iv. The series is classed as ADME, organism-based. The arrangement: dose 1 mg/kg, route intravenous.
The test system of series [2] is Mus musculus. Kind of series: Dose normalized AUC in mouse at 100 mg/kg, po. The series is classed as ADME, organism-based. The arrangement: dose 100 mg/kg, route oral.
Series [3] relates to Mus musculus. The series is described as follows: Dose normalized AUC in mouse at 30 mg/kg, po. The series is classed as ADME, organism-based. On the set-up: dose 30 mg/kg, route oral.
For series [4], the system named is Mus musculus. Kind of series: Toxicity in mouse at 300 mg/kg, po. The series is classed as organism-based. The arrangement: dose 300 mg/kg, route oral.

For the compound `COc1ccc(C(=O)C2CCN(CC(=O)N(Cc3nc4c(c(=O)[nH]3)COCC4)CC3CC3)CC2)cc1`, the AUC/dose in series [1] was 3.46 µM·h; in series [2], 183.4 µM·h; in series [3] it was 33.4 µM·h.
As to `CC(C)(O)c1ccc(-c2nc3c(c(=O)[nH]2)COCC3)cc1`, the Activity result in series [4] is “Non-toxic”.
